The values below come from US9346815B2, “5-chloro-2-difluoromethoxyphenyl pyrazolopyrimidine compounds, compositions and methods of use thereof” (Genentech, Inc., priority 2014, dated 2016).

Sequences of proteins named here, by UniProt entry; tags and fusion partners are left off. Residues count along the entry.
UniProt O60674, 849-1124 limits assumed: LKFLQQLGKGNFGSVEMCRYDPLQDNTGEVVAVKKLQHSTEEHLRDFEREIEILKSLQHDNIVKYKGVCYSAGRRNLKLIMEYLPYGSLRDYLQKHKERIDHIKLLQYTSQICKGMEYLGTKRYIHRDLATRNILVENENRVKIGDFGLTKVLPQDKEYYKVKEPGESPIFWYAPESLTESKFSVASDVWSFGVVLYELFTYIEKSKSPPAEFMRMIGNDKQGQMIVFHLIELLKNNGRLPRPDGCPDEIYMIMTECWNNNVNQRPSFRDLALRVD
UniProt P23458, 875-1153 limits assumed: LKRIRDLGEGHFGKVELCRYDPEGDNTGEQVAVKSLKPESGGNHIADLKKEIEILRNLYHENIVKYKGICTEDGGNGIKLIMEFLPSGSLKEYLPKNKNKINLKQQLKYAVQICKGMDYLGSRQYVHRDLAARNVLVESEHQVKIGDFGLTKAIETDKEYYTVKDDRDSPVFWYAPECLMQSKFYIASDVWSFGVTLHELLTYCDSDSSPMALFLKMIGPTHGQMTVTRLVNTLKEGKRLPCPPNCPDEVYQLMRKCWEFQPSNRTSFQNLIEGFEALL

The target in test [1] is isolated recombinant JAK2 kinase domain (Homo sapiens (Human), UniProt O60674). The test can be described thus: JAK2 enzyme assay (Caliper LabChip, peptide phosphorylation). The class given is biochemical. As to conditions: read-out: JAK2 Ki, 25 μM ATP, tested form: formate.
In test [2] the target is isolated recombinant JAK1 kinase domain (Homo sapiens (Human), UniProt P23458). The test can be described thus: JAK1 enzyme assay (Caliper LabChip, peptide phosphorylation). The class given is biochemical. As to conditions: read-out: JAK1 Ki; tested form: formate.
Test [3] deals with JAK1-dependent STAT6 phosphorylation downstream of IL-13 stimulation in BEAS-2B human bronchial epithelial cells. The test can be described thus: JAK1 pathway assay in BEAS-2B cells (IL-13-pSTAT6, MSD). As to conditions: read-out: IL13-pSTAT6 EC50 (uM)_BEAS-2B, tested form: formate.

Turning to `O=C(Nc1cn(CC(=O)N2CCC(N3CC(O)CCC3=O)CC2)nc1-c1cc(Cl)ccc1OC(F)F)c1cnn2cccnc12` (stereo not drawn), the figures for the Ki in test [1] and in test [2] were 880 pM and 390 pM, respectively. The EC50 in test [3] came to 0.0343 µM.
